AlphaSeq binding of Ab-91 heavy chain variants to a spike HR2 peptide

Data: MIT Lincoln Laboratory AlphaSeq set, Engelhart et al. 2022, doi:10.1038/s41597-022-01779-4, as distributed in FLAb.

Target peptide (SARS-CoV-2 spike, HR2 region): PDVDLGDISGINAS

Ab-91 is the parent antibody, in scFv form: VL, then three GGGGS repeats, then VH. The light chain is unchanged in all variants.
VL: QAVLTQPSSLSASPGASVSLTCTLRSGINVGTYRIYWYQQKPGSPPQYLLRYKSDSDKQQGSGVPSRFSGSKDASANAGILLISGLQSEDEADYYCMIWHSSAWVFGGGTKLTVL
VH: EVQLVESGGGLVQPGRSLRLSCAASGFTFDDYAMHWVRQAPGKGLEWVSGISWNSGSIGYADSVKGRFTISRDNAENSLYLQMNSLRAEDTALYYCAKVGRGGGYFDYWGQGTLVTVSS

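The parent was found by panning a naive human phage display library on the peptide. AAYL51 was designed without a model: most single CDR substitutions and a random sample of double and triple ones. The assay is AlphaSeq: two haploid yeast populations carry antibody and antigen on their surface. Pairs that bind mate more often; barcode pairs of the diploids are counted by sequencing. Each replicate has its own calibration line, from reference interactions of the BCL2 family. The assay was run in three technical replicates.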

The parent's heavy chain CDRs are GFTFDDYAMH, GISWNSGSIGYADSVK, VGRGGGYFDY; each variant's own CDRs replace them letter for letter.
Each Kd is an estimate from the mating assay, the geometric mean of the replicates in which the pair was seen; lower is stronger.
Where no diploid with the target was found in any replicate, the entry reads "not detected": below detection, most likely a poor binder, though not proof of it.
In this assay the parent's reference entry averaged 72 nM; its copy inside this library read 7.5 nM.

CDR-H1	CDR-H2	CDR-H3	Kd (apparent)	detected
GFTFDDYAMH	GCSWNSGSIGYASSVK	VGRGGGYFDN	41 µM	1 of 3
GFTFDDYAMH	GISWNVGSIGYADEVK	VGRGGGYFCY	21 µM	1 of 3
GWTFDDYAMH	GISWNSGSIGYDDSVK	VGRGGGYYDY	60 µM	2 of 3
GFSFDDYAVH	GISWNSGSIGYADSVK	VGRGGGYFDG	2.1 µM	3 of 3
GFTFDDYRMH	GISWNSTSIGYADSVK	VGRGQGYFDY	not detected	0 of 3
GFTFDDYAMH	GIQWNSGSIGYADSVK	AGRGGGYKDY	not detected	0 of 3
GFTIDDYAMH	GISWNSESIGVADSVK	VGRGGGYFDY	4.9 nM	3 of 3
GFYFDDYAMH	GISNNSGSIGYADSVV	VGRGGGYFDY	7.7 µM	1 of 3
GFTFDDYAMH	GISWNSGSIGHADSVK	VGNGEGYFDY	1.3 µM	1 of 3
GFTFDDSAMH	GISWNSGSIGYADMVK	VGRGVGYFDY	not detected	0 of 3
GFTFDDYAMH	GISWNSPSIGYADSVK	VGRGGGYFDC	47 µM	2 of 3
GFTFDDYAMH	GIIWNSFSIGYADSVK	DGRGGGYFDY	not detected	0 of 3
GFAFDDYAMH	AISWNSGSIIYADSVK	VGRGGGYFDY	not detected	0 of 3
GFTFDDYAMH	GIMWNGTSIGYADSVK	VGRGGGYFDY	not detected	0 of 3
GFTFDHYAHH	GISWNSGSIGYADSVK	VGRGGGYFNY	not detected	0 of 3
GFTFDDYAMH	GISWNSGSIGYAQSVK	VGRGGGYMDY	17 nM	3 of 3
GFTFCDYAMH	GRSWNSGSIVYADSVK	VGRGGGYFDY	not detected	0 of 3
GFKFDDYAMH	GISWNSGSIGYAISVK	VGRFGGYFDY	11 µM	3 of 3
GNTFDDYAMH	WISWNSGSIGYADSVK	VGRGGGYFDY	540 µM	1 of 3
GFTFDDQNMH	GISWNSGSIGYADSVK	VGRGGGYFDY	not detected	0 of 3
GFTFDDYAMH	GISWNSGMGGYADSVK	VERGGGYFDY	not detected	0 of 3
GFTFDDYAMH	GNHWQSGSIGYADSVK	VGRGGGYFDY	76 µM	1 of 3
GFSADDYARH	GISWNSGSIGYADSVK	VGRGGGYFDY	740 nM	1 of 3
GWTFDDYAMH	GISWNSGWIGYADSHK	VGRGGGYFDY	210 µM	1 of 3
GFTMDQYAMH	GISWNSGSIGYGDSVK	VGRGGGYFDY	25 nM	3 of 3
GNTFDDYAMH	GHSWNSGSIGYADSVK	VGRGGPYFDY	11 µM	2 of 3
GFGFDDYAMH	GIYWNSGSIGYADSVK	VGLGGGYFDY	15 µM	2 of 3
GFTFDDYAMH	GIGWNSGSIGYADYIK	VGRGGGYFDY	900 nM	3 of 3
EFTFDDYAME	GISWNSGSIGYTDSVK	VGRGGGYFDY	170 nM	3 of 3
GFTFDDYGMH	GINWNSGSIGYADSVK	VGRGGGYFDY	64 µM	3 of 3
GFTVDVYAMH	GISWNSGEIGYADSVK	VGRGGGYFDY	530 nM	1 of 3
NFTFDDYAMH	TINWNSGSIGYADSVK	VGRGGGYFDY	8.1 µM	1 of 3
EFTFDDYAMV	GISWNSGSIGYADSVK	VGRGGGYFDY	2.2 µM	2 of 3
GFTFDDYAMH	GISWNSGSIGYADDVK	GGRGGRYFDY	60 µM	1 of 3
GFTFDDYAMH	GISWNSGSTGYADSVK	VGRGRGEFDY	87 µM	3 of 3
GFTFDDYAMH	GISWNSFTIGYADSVK	VGRGGGYFWY	960 µM	3 of 3
VFTFDDYAMT	GISWNSGSIGYADSVK	RGRGGGYFDY	170 µM	3 of 3
LFTFDDYMMH	GISWNSGSIGYSDSVK	VGRGGGYFDY	6.9 µM	1 of 3
GFTTDDYAMH	GISWNSGSIGYADIVK	VGRGGGYFDY	not detected	0 of 3
RFMFDDYAMH	GISWNSGSIGYADSVK	VGRGGHYFDY	not detected	0 of 3
GFTMDDYAMH	GISWNSGSRGYADSVK	VGRGGGYFTY	7.0 nM	3 of 3
GDTFDDYAMH	GIWWNSGSICYADSVK	VGRGGGYFDY	5.9 µM	2 of 3
GFTHDDYAMH	GISWNSGSIGYADSVK	VGRGGGAFDY	40 µM	1 of 3
GFTFDDYAMH	GISWCSGSIGYADSVK	VGRGAMYFDY	not detected	0 of 3
GFTFDIYAHH	GISWNSGSIGYADSVK	VRRGGGYFDY	not detected	0 of 3
GPAFDDYAMH	GISWNSGSIGYADSVK	VGRGGTYFDY	21 µM	2 of 3
GFTFDDYAMS	GISHNSGSIGYADSVK	VGRGGGYFGY	not detected	0 of 3
GFTFDDYAMH	GISWNSGCIGYADSFK	VGRGGGYFDE	260 nM	3 of 3
GFTFDDYAMH	GISWNSGSIGYADIVK	PGHGGGYFDY	not detected	0 of 3
GFTFDDYAMH	GCSWNSDSIGYADSVK	VGRGGGTFDY	1.6 µM	1 of 3
GFTFDDYAMH	GNSWNSGSIGYADSVK	VGKGGGYFDR	not detected	0 of 3
GFTFDDYAMG	GISWNSGSIVYWDSVK	VGRGGGYFDY	not detected	0 of 3
GFTFDDYAMH	GLSWNSGSIGYADSVK	VGAIGGYFDY	not detected	0 of 3
GFTVDDYAMH	GISWNSGSIGYADSVK	VGHGGGYCDY	5.0 µM	1 of 3
GFTFDDYAMH	GISWNSGSIGYADNVK	VGRLFGYFDY	not detected	0 of 3
GDTFDVYAMH	PISWNSGSIGYADSVK	VGRGGGYFDY	110 µM	2 of 3
HFTFDCYAMH	GISWNSGSIGYADSQK	VGRGGGYFDY	not detected	0 of 3
GFTFDDYAMH	GHSWNSGSIGYDDSVK	VGRGGGYFDY	not detected	0 of 3
GFTFDDYAMH	GISWNSASIGYAISVK	VGRGGGYPDY	not detected	0 of 3
GFTFDDYAMH	GYSWNSGSIGYADSVK	VGLGGGYFDY	not detected	0 of 3
GFTFDDYAMH	GISWNSGSIGYADSVK	VDRVGKYFDY	230 nM	3 of 3
GFTFDDYAME	GISWNSGSIGYADSVK	VGRGGGLFLY	not detected	0 of 3
GFTFDDYAMH	GIMENSGSIGYADSVK	VGRGGMYFDY	1.6 µM	1 of 3
MFTFDDAAMH	GISWNSGSIGYADSVK	VGRGGGYFDY	96 nM	3 of 3
GFTFDDYAMH	GISWNSGSIGYADSVM	VGRGGGYFDV	10 nM	3 of 3
GFTFNDYAMH	GFPWNSGSIGYADSVK	VGRGGGYFDY	30 µM	1 of 3
GFTIDDYAMH	GISWNSGSIGIVDSVK	VGRGGGYFDY	not detected	0 of 3
GQTFDDYYMH	GISWNSGSIGYADSVK	VGRGGGYKDY	2.3 µM	1 of 3
NFTFDDYAMH	GISWNSGSIGYADSVK	VHRGGGYFDF	not detected	0 of 3
GFNFDFYAMH	GISWNSGSIGFADSVK	VGRGGGYFDY	not detected	0 of 3
GFTFDDYAMH	DISWNSHSIGYADSLK	VGRGGGYFDY	not detected	0 of 3
GFTFADYAMH	GISWNSGSIGYWDSVK	VGRGGGYFDY	260 µM	1 of 3
GFTFDDWAMH	GISWNSGSIGYADSVK	WGRGGGYFDY	5.6 µM	3 of 3
GFHFDDYAMH	GISWNSGQIRYADSVK	VGRGGGYFDY	54 µM	2 of 3
GFTFDKYAMH	GISWNSGSIGYADDVK	VGRGGGWFDY	34 nM	3 of 3
GFKFDDYAMH	GISWNSGMIGYATSVK	VGRGGGYFDY	12 nM	3 of 3
MFTFDDYAMH	GISWNSGSIGYADSVK	VARGGGYFRY	150 µM	2 of 3

The 5 strongest on average among those seen in every replicate, once more:

{"CDR-H1": "GFTIDDYAMH", "CDR-H2": "GISWNSESIGVADSVK", "CDR-H3": "VGRGGGYFDY", "Kd (apparent)": "4.9 nM", "detected": "3 of 3"}
{"CDR-H1": "GFTMDDYAMH", "CDR-H2": "GISWNSGSRGYADSVK", "CDR-H3": "VGRGGGYFTY", "Kd (apparent)": "7.0 nM", "detected": "3 of 3"}
{"CDR-H1": "GFTFDDYAMH", "CDR-H2": "GISWNSGSIGYADSVM", "CDR-H3": "VGRGGGYFDV", "Kd (apparent)": "10 nM", "detected": "3 of 3"}
{"CDR-H1": "GFKFDDYAMH", "CDR-H2": "GISWNSGMIGYATSVK", "CDR-H3": "VGRGGGYFDY", "Kd (apparent)": "12 nM", "detected": "3 of 3"}
{"CDR-H1": "GFTFDDYAMH", "CDR-H2": "GISWNSGSIGYAQSVK", "CDR-H3": "VGRGGGYMDY", "Kd (apparent)": "17 nM", "detected": "3 of 3"}

Nonspecific signal, from three strains lacking the peptide, appeared in 21% of pairings of library AAYL51, centred on 34 µM (5% of these signals below 1.8 µM); values are not corrected for it.